Assay results: patent publication US20260382644A1, “SOS1 INHIBITORS” (published 2026)

Protein sequences, listed by entry. Tags and fused reporters are not part of them. Residues count along the entry.
UniProt Q07889, whole entry: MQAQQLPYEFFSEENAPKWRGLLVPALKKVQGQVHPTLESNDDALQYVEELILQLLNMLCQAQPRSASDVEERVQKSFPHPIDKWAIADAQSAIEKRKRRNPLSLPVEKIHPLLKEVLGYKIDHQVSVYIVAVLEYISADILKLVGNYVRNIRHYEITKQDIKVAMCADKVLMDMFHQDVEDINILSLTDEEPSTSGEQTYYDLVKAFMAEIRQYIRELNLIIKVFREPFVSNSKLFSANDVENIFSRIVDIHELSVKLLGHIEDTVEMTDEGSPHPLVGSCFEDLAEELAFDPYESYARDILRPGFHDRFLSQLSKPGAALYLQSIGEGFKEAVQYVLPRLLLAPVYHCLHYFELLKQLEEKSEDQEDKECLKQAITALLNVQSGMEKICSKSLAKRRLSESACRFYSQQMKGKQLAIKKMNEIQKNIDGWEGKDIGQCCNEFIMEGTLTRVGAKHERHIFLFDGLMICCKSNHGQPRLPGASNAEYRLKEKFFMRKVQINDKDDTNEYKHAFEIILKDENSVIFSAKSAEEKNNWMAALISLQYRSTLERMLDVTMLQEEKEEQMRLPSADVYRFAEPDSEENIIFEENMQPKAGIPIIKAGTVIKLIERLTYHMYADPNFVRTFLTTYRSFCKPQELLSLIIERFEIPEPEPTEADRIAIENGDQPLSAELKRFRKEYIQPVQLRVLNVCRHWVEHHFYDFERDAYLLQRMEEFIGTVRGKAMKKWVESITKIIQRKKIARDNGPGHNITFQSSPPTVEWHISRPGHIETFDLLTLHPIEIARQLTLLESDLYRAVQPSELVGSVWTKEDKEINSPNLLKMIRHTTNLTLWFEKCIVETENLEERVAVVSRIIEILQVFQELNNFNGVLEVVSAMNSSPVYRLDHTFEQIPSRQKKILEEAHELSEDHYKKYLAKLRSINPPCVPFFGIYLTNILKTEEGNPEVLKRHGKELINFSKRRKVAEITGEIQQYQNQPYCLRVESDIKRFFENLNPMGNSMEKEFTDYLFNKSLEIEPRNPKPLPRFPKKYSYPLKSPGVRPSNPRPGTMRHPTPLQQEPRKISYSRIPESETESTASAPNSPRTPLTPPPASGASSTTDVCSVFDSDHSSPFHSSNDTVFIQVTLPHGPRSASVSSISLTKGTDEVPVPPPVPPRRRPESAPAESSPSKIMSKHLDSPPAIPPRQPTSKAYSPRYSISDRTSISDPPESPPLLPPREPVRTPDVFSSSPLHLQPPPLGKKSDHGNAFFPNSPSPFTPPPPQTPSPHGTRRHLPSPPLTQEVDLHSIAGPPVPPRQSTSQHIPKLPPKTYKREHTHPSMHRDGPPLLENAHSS
UniProt Q07889, 564-1049 limits assumed: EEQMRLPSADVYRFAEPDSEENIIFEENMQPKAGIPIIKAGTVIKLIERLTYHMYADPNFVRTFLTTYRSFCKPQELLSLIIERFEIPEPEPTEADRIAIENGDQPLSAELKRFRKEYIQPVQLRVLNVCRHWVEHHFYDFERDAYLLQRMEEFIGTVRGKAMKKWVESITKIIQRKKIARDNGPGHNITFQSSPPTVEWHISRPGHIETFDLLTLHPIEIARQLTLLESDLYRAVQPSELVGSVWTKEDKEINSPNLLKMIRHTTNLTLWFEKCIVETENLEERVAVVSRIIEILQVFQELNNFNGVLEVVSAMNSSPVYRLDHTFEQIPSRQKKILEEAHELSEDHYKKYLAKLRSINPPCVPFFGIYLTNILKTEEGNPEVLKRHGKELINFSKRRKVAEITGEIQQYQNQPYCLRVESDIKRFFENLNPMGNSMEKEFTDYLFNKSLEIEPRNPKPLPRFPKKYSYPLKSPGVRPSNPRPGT

Assays:
[1] = In vitro metabolic stability in rat hepatocytes; details: 1 μM, well stirred liver model
[2] = target: pERK (phospho-ERK1/2) in K-562 cells (Homo sapiens, UniProt Q07889); experiment: pERK HTRF in K-562 cells; details: read-out: pERK HTRF IC50 (mean), 1 h treatment
[3] = target: hK-RasG12C - hSOS1 interaction (Homo sapiens, UniProt Q07889); experiment: hK-RasG12C Interaction Assay with hSOS1 (HTRF); details: read-out: K-RasG12C - SOS interaction assay IC50 (mean), 60 min incubation, 20 °C
[4] = In vitro metabolic stability in human liver microsomes; details: 1 μM, 0.5 mg/mL protein, pH 7.4, well-stirred liver model
[5] = tested on: cell-lines, xenograft models, and transgenic mouse models harboring activating EGFR mutations and EGFR T790M; details: preclinical; cited from earlier work
[6] = In vitro metabolic stability in human hepatocytes
[7] = tested on: EGFR with activating EGFR mutations (EGFR del19 and EGFR 1858R) and EGFR T790M; details: preclinical, EGFR del19, EGFR 1858R; cited from earlier work
[8] = tested on: tumor xenograft and transgenic mouse models harboring activating EGFR mutations and EGFR T790M; details: cited from earlier work

SMILES | Fmax rat hepatocytes (maximal oral bioavailability) [1] | IC50 [2] | IC50 [3] | Fmax human liver microsomes (maximal oral bioavailability) [4] | Fmax human hepatocytes (maximal oral bioavailability) [6] | tumor regression [5] | inhibition of phosphorylation of EGFR in mutant cell lines [7] | tumor regression [8]
Cc1nc(N[C@H](C)c2cccc(C(F)(F)C(C)(O)C3CCC3)c2F)c2cc(P3(=O)CC=CC3)ncc2n1 (mixture of isomers) | 3% | 129 nM | 12.4 nM | 14% |  |  |  | 
Cc1nc(N[C@H](C)c2cccc(C(F)(F)C(O)C3CC3)c2F)c2cc(P(C)(C)=O)ncc2n1 (single isomer, unassigned) [Example 7] | 100% | 287 nM | 19.4 nM | 38% |  |  |  | 
Cc1nc(N[C@H](C)c2cccc(C(F)(F)C(C)(O)C3CCC3)c2F)c2cc(P(C)(C)=O)ncc2n1 (single isomer, unassigned) [Example 6.1] | 4% | 56.4 nM | 5.28 nM | 18% |  |  |  | 
C=CC(=O)Nc1cccc(Nc2nc(Nc3ccc(N4CCN(C(C)=O)CC4)cc3OC)ncc2C(F)(F)F)c1 |  |  |  |  |  | led to tumor regression |  | 
Cc1nc(N[C@H](C)c2cccc(C(F)(F)C(O)C3CC3)c2F)c2cc(P(C)(C)=O)ncc2n1 (single isomer, unassigned) [Example 8] | 100% | 16.4 nM | 3.72 nM | 49% |  |  |  | 
Cc1nc(N[C@H](C)c2cccc(C(F)(F)C(C)(O)C3CCC3)c2F)c2cc(P3(=O)CCCC3)ncc2n1 (mixture of isomers) | 4% | 126 nM | 96.1 nM | 10% |  |  |  | 
Cc1nc(N[C@H](C)c2cccc(C(F)(F)C(C)(O)C3CC3)c2F)c2cc(P(C)(C)=O)ncc2n1 (single isomer, unassigned) [Example 1.1] | 73% | 42 nM | 5.62 nM | 100% | 91% |  |  | 
C=CC(=O)Nc1cc(Nc2nccc(-c3cn(C)c4ccccc34)n2)c(OC)cc1N(C)CCN(C)C |  |  |  |  |  |  | potently inhibited phosphorylation of EGFR | profound and sustained tumor regression
CCC(C)(O)C(F)(F)c1cccc([C@@H](C)Nc2nc(C)nc3cnc(P(C)(C)=O)cc23)c1F (single isomer, unassigned) [Example 12] | 44% | 110 nM | 26.7 nM | 72% |  |  |  | 
Cc1nc(N[C@H](C)c2cccc(C(F)(F)C(C)(O)C3CC3)c2F)c2cc(P3(=O)CCCC3)ncc2n1 (mixture of isomers) | 52% | 75.8 nM | 5.39 nM | 23% |  |  |  | 
Cc1nc(N[C@H](C)c2cccc(C(F)(F)C(C)(O)C3CCC3)c2F)c2cc(P(C)(C)=O)ncc2n1 (mixture of isomers) | 5% | 76.9 nM | 9.17 nM | 17% |  |  |  | 

More lines, main results first:

Fmax rat hepatocytes (maximal oral bioavailability) [1] | IC50 [2] | IC50 [3] | Fmax human liver microsomes (maximal oral bioavailability) [4] | Fmax human hepatocytes (maximal oral bioavailability) [6] | SMILES | tumor regression [5] | inhibition of phosphorylation of EGFR in mutant cell lines [7] | tumor regression [8]
42% | 76 nM | 17.1 nM | 64% |  | CCC(C)(O)C(F)(F)c1cccc([C@@H](C)Nc2nc(C)nc3cnc(P(C)(C)=O)cc23)c1F (single isomer, unassigned) [Example 11] |  |  | 
63% | 90.3 nM | 11.2 nM | 90% |  | Cc1nc(N[C@H](C)c2cccc(C(F)(F)C(C)(O)C3CC3)c2F)c2cc(P(C)(C)=O)ncc2n1 (mixture of isomers) |  |  | 
90% | 27.8 nM | 13.2 nM | 34% |  | Cc1nc(N[C@H](C)c2cccc(C(F)(F)C(O)C3CC3)c2F)c2cc(P3(=O)CCCC3)ncc2n1 (single isomer, unassigned) [Example 10] |  |  | 
77% | 128 nM | 12.8 nM | 86% | 80% | Cc1nc(N[C@H](C)c2cccc(C(F)(F)C(C)(O)C3CC3)c2F)c2cc(P(C)(C)=O)ncc2n1 (single isomer, unassigned) [Example 1.2] |  |  | 
20% | 86 nM | 6.97 nM | 18% |  | Cc1nc(N[C@H](C)c2cccc(C(F)(F)C(C)(O)C3CC3)c2F)c2cc(P3(=O)CC=CC3)ncc2n1 (mixture of isomers) |  |  | 
87% | 133 nM | 19.2 nM | 32% |  | Cc1nc(N[C@H](C)c2cccc(C(F)(F)C(O)C3CC3)c2F)c2cc(P3(=O)CCCC3)ncc2n1 (single isomer, unassigned) [Example 9] |  |  | 
